According to ChEMBL document CHEMBL1138043, “Exploration of orally available calpain inhibitors 2: peptidyl hemiacetal derivatives” (J Med Chem, 2006):

Target: T1, Calpain-2 catalytic subunit (Sus scrofa, UniProt P43367)
T1 sequence (P43367 whole entry): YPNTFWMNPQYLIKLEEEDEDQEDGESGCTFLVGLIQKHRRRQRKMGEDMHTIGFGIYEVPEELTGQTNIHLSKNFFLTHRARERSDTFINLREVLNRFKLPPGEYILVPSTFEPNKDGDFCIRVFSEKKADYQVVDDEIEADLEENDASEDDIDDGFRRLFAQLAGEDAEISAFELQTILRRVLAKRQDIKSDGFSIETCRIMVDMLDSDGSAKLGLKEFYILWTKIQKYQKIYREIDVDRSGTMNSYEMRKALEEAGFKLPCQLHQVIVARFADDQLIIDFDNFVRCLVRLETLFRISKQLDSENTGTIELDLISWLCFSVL
Assay: Inhibition of porcein kidney m calpain

IC50: 21 nM
Structure (SMILES): CCCCNC(=O)C(=O)[C@H](CC(C)C)NC(=O)[C@@H](NS(=O)(=O)c1ccc(F)cc1)C(C)C
